Data reported in US20090104119A1, “Dendrimer Based Compositions And Methods Of Using The Same” (priority 2004, published 2009).

Test system: KB tumor
Assay: Biodistribution of fluorescent dendrimer conjugates in tumor (confocal microscopy, flow cytometry)
Type: in vivo, mice
Settings: 15 hours after i.v. injection, compared with nontargeted dendrimer
Description: Biodistribution of fluorescent dendrimer conjugates. […] Flow cytometry analysis was done with single-cell suspension isolated from tumor. Tumor was crushed, cell suspension filtered through 70 μm nylon mesh (Becton Dickinson, Franklin Lakes, N.J.), and washed with in PBS. Samples were analyzed using an EPICS XL flow cytometer (Coulter, Miami, Fla.). As determined by prior propidium iodine staining, only live cells were gated for analysis. Data were reported as the mean channel fluorescence of the cell population.
For confocal microscope imaging, tissue was dissected, embedded in OCT, and frozen in 2-methyl-butane in a dry ice bath. Sections (15 μm) were cut on a cryostat, thaw mounted onto slides, and stored at −80° C. until stained. After staining, the slides were fixed in 4% paraformaldehyde, rinsed in phosphate buffer (0.1 mol/L; pH 7.2), and mounted in Prolong. The images were acquired using a Zeiss 510 metalaser scanning confocal microscope equipped with a ×40 Plan-Apo 1.2 numerical aperture (water immersion) objective with a correction collar. The confocal image was recorded as 512×512×48 pixels with a scale of 0.45×0.45×0.37 μm per pixel. Each image cube was optically cut into 48 sections, and the sections that cut through the nucleus and cytoplasm were presented.
Targeting and internalization of fluorescent dendrimer conjugate. […]

Substance: G5-(Ac)82-(6-TAMRA)3-(FA)4 [G5-6T-FA]
- fluorescent cells in tumor tissue, confocal: significant number of fluorescent cells
